Only some compounds are listed: those with a hit (about 2.8% of all), similar ones and a draw of the others.
esBAF inh: SWI/SNF esBAF complex inhibition; mouse ES cells, Bmi1-luciferase knock-in reporter, 24 h; 100% = twice the neutral-well signal; reporter increase, % at 12.5 µM; 2% of 350,000 active; AID 602393; in the data active means activation above about 40%; inconclusive means no clear call, values can overlap the other calls;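 further: 0% = median of the plate's neutral control wells and 100% = double that signal; a rise in the Bmi1 reporter signal indicates esBAF inhibition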
miR-122 sensor: inhibitors of miR-122 in Huh7 cells | Huh7 miR-122 Renilla luciferase sensor, 48 h; neutral wells = 0, positive control = 100 | activation (reporter increase), % at 12.5 µM | 0.3% of 340,000 active;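 active means mean replicate activation score at least 90 and every replicate individually at or above 90; inconclusive means only one of the two criteria met; inactive means neither criterion met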;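 further: higher luciferase means less miR-122 activity so hits act as miR-122 inhibitors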
MITF TRPM1 HTS: increases MITF-driven TRPM1 promoter luciferase signal; SK-MEL-5 TRPM1-promoter luciferase, 24 h; % of positive control, neutral wells = 0; 0.75% of 300,000 active; activation, % at 12.5 µM;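 active means mean activation of at least 80% with every replicate also reaching 80%; inconclusive means mean reaches 80% but some replicate falls short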;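 further: 0% = neutral control wells and 100% = parthenolide positive control wells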
Wnt act: activates Wnt/beta-catenin signaling in a reporter cell assay. AID 743398. activator, plate reader. 1.2% of 300,000 active. activation, % at 9.35 µM; in the data active means activation above about 30%, passing the limit was not always enough; inconclusive means no clear call, values can overlap the other calls;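 further: 0% = neutral control wells and 100% = positive control wells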
PglD inh: inhibitors of Campylobacter jejuni PglD acetyltransferase. purified PglD enzyme, DTNB colorimetric CoA detection. inhibition, % at 12.5 µM. 0.098% of 360,000 active; in the data active means inhibition above about 16%, passing the limit was not always enough; inconclusive means no clear call, values can overlap the other calls
UUG fidelity: yeast start codon fidelity modulation | S. cerevisiae UUG-firefly luciferase reporter, luminescence/redox ratio | activity score, % at 18.7 µM | 0.13% of 350,000 active | AID 602363;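 active means replicate mean at a twofold rise or more, about +100% in these data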;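 further: firefly luciferase made from a UUG start codon reports start codon fidelity; reporter light over untreated wells divided by growth signal over untreated wells; some hits fall short of that in this replicate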
* marks the source's active call; other numbers are inactive results; ? = inconclusive; nt = no result; [ ] = dose if it differs, or a comment.

SMILES	esBAF inh	miR-122 sensor	MITF TRPM1 HTS	Wnt act	PglD inh	UUG fidelity
CCC(=O)N1[C@H](CO)[C@@H](c2ccc(-c3ccccc3)cc2)[C@H]1CNC(=O)COC	0	0[16.7 µM]	nt	nt	-1	4
O=C(C[C@@H]1CC[C@H](NC(=O)Nc2ccc(C(F)(F)F)cc2)[C@H](CO)O1)NCc1cc(F)cc(F)c1	10	nt	nt	nt	5	nt
COc1cc(/C=N/Nc2ccccc2)ccc1OC(=O)c1cccs1	nt	nt	nt	4	nt	nt
COc1cc(C=NNc2ccccc2)ccc1OC(=O)c1ccccc1	41*	3	nt	17	8	-17
COc1cc(/C=N/Nc2ccc(Cl)c(C(=O)O)c2)ccc1OC(=O)c1cccs1	14	-7	-5	37*	-1	4
C[C@H](CO)N1C[C@H](C)[C@@H](CN(C)C(=O)C2CC2)Oc2ncc(C#Cc3ccccc3)cc2C1=O	-10	24[16.7 µM]	nt	nt	-2	-3
COc1ccc(CNC(=O)C[C@@H]2C[C@@H]3c4cc(NS(C)(=O)=O)ccc4O[C@@H]3[C@@H](CO)O2)cc1	-1	3[16.7 µM]	nt	nt	3	-5
CN(C)/C=N/C(=S)Nc1ccc(Cl)c(Cl)c1	63*	22	41	9	-4	-13
Nc1nnc(CC(=O)N/N=C/c2ccc(-c3cccc(C(=O)O)c3)o2)s1	nt	13	8	38*	-1	-10
COc1ccc2cc(C(=O)N3CCN(c4cccc(C)c4C)CC3)[nH]c2c1	-6	-4	5	2	-6	-19
COc1ccc2c(CC(=O)N3CCc4ccccc43)coc2c1	nt	7	111*	nt	0	-2
COc1ccc2oc(C(=O)N3CCc4ccccc43)c(C)c2c1	-45	137*	27	25	-2	-65
O=C(c1cc2cc(Br)ccc2[nH]1)N1CCc2ccccc21	31	3	15	4	2	4
O=C(c1cc2cc(F)ccc2[nH]1)N1CCc2ccccc21	63*	nt	54	42*	1	-23
COc1ccc2cc(C(=O)N3CCc4ccccc43)[nH]c2c1	31	3	39	46*	-1	3
CC(C)NC(=O)N(C)C[C@H]1Oc2ncc(-c3cncnc3)cc2C(=O)N([C@@H](C)CO)C[C@H]1C	5	nt	nt	nt	0	-12
COc1ccc(S(=O)(=O)N(C)C[C@H]2OCCCC[C@H](C)Oc3ccc(NC(=O)Cc4ccccc4)cc3C(=O)N([C@H](C)CO)C[C@@H]2C)cc1	8	8[16.7 µM]	nt	nt	5	4
CCOc1ccc(C2C(C(=O)c3ccco3)=C(O)C(=O)N2CCCn2ccnc2)cc1 (stereo not drawn)	54*	-7	13	26	0	-13
CCOc1ccc(C2C(C(=O)c3ccco3)=C(O)C(=O)N2CCCn2ccnc2)cc1OCC (stereo not drawn)	21	1	8	-1	-2	-16
CCOc1ccc(C2C(C(=O)c3ccco3)=C(O)C(=O)N2Cc2cccnc2)cc1 (stereo not drawn)	5	-8	nt	35*	nt	nt
C[C@H]1CN([C@@H](C)CO)C(=O)c2cc(NS(=O)(=O)c3ccc(Cl)cc3)ccc2O[C@@H]1CN(C)S(C)(=O)=O	0	0[16.7 µM]	nt	nt	nt	-7
Cc1ccc(/C=C2\Sc3ccccc3C2=O)s1	27	3	6	72*	0	-29
C[C@H]1CN([C@@H](C)CO)C(=O)Cc2cc(NC(=O)C3CC3)ccc2O[C@H]1CN(C)S(=O)(=O)c1cccs1	-5	8[16.7 µM]	nt	nt	-1	-13
CCCCC(=O)Nc1sc2c(c1C#N)CC(C)(C)OC2	23	-17	91*	22	0	-13
CC1(C)Cc2c(sc(NC(=O)Cc3ccccc3)c2C#N)CO1	nt	nt	1	0	nt	nt

Sorted by number of heavy atoms (lowest first): part of the list above
SMILES	esBAF inh	miR-122 sensor	MITF TRPM1 HTS	Wnt act	PglD inh	UUG fidelity
Cc1ccc(/C=C2\Sc3ccccc3C2=O)s1	27	3	6	72*	0	-29
COc1ccc2c(CC(=O)N3CCc4ccccc43)coc2c1	nt	7	111*	nt	0	-2
CCOc1ccc(C2C(C(=O)c3ccco3)=C(O)C(=O)N2Cc2cccnc2)cc1 (stereo not drawn)	5	-8	nt	35*	nt	nt
CCOc1ccc(C2C(C(=O)c3ccco3)=C(O)C(=O)N2CCCn2ccnc2)cc1OCC (stereo not drawn)	21	1	8	-1	-2	-16
COc1ccc(S(=O)(=O)N(C)C[C@H]2OCCCC[C@H](C)Oc3ccc(NC(=O)Cc4ccccc4)cc3C(=O)N([C@H](C)CO)C[C@@H]2C)cc1	8	8[16.7 µM]	nt	nt	5	4

Further records
SMILES	esBAF inh	miR-122 sensor	MITF TRPM1 HTS	Wnt act	PglD inh	UUG fidelity
C/C(Cc1ccccc1)=N\NC(=O)CNC(=O)c1cccc(Cl)c1	nt	nt	-3	33*	nt	nt
C/C(Cc1ccccc1)=N\NC(=O)CNC(=O)c1ccc(Cl)cc1Cl	nt	-6	nt	-1	-4	1
CC(=O)Nc1ccc(N=Nc2ccccc2)cc1[N+](=O)[O-]	56*	-3	nt	-1	-7	-32
CC(=O)Nc1cc2oc3ccccc3c2cc1[N+](=O)[O-]	?	2	nt	17	-1	-17
COc1ccc(C2=Nc3ccccc3N(C(=O)c3ccc4ncccc4c3)C2C(=O)NC(C)(C)C)cc1 (stereo not drawn)	nt	nt	nt	34*	nt	nt
COc1ccc(NC(=O)Nc2ccc3c(c2)[C@@H]2C[C@H](CC(=O)NCc4ccccc4F)O[C@@H](CO)[C@@H]2O3)cc1	2	4[16.7 µM]	nt	nt	-1	-2
Cc1ccc(NC(=O)C2CCCN(C(=O)Nc3ccc(F)cc3)C2)cc1 (stereo not drawn)	1	-4	-8	-2	0	-17
Cc1nc2cc(NC(=O)N3CCC(c4ccccc4)C3)ccc2n1C (stereo not drawn)	54*	0	41	6	0	-16
Cc1ccc(C2CCN(C(=O)Nc3ccc(F)cc3)C2)cc1 (stereo not drawn)	63*	-1	95*	-1	4	-14
O=C(Nc1ccccc1)N1CC=C(c2ccc(F)cc2)CC1	61*	-4	103*	nt	7	-21
C[C@@H]1CN([C@@H](C)CO)C(=O)c2cc(C#Cc3cccc(F)c3)cnc2O[C@@H]1CN(C)C(=O)C1CCOCC1	11	-11[16.7 µM]	nt	nt	nt	-13
Cc1ccc(CCNC(=O)C2CCC(=O)N(Cc3ccccc3F)C2)o1 (stereo not drawn)	55*	4	25	17	2	4
Cc1cc(C)nc(CCNC(=O)C2CCC(=O)N(Cc3ccccc3F)C2)n1 (stereo not drawn)	8	5	9	1	3	5
COc1ccccc1CCCNC(=O)C1CCC(=O)N(Cc2ccccc2F)C1 (stereo not drawn)	46*	1	?	12	6	-7
C[C@@H]1CN([C@H](C)CO)C(=O)c2cc(NS(=O)(=O)c3ccccc3)ccc2O[C@@H]1CN(C)S(C)(=O)=O	-1	-27[16.7 µM]	nt	nt	-1	-14
O=C(C[C@H]1C=C[C@H](NC(=O)Nc2ccccc2)[C@H](CO)O1)NCc1cccc(F)c1	11	nt	nt	nt	4	13
COc1ccc(S(=O)(=O)Nc2ccc3c(c2)C(=O)N([C@@H](C)CO)C[C@H](C)[C@H](CN(C)C(=O)NC(C)C)O3)cc1	-2	7[16.7 µM]	nt	nt	1	3
C[C@@H]1CN([C@@H](C)CO)C(=O)c2cc(C3=CCCCC3)cnc2O[C@H]1CN(C)Cc1ccccn1	6	nt	nt	nt	3	-14
COCCNC(=O)C[C@@H]1C[C@H]2c3cc(NS(=O)(=O)c4ccc(F)cc4)ccc3O[C@H]2[C@@H](CO)O1	-3	1[16.7 µM]	nt	nt	1	-6
O=C(O)c1cccc(N/N=C/C2=C(Cl)c3cc(Cl)ccc3SC2)c1	nt	nt	36	40*	nt	nt
O=C(CCN1CCCCC1)NCC[C@H]1CC[C@@H](NC(=O)C2CCC2)[C@@H](CO)O1	1	5[16.7 µM]	nt	nt	0	-4

Screening results (PubChem BioAssay)
